Assay results published in US20220133783A1 (priority 2020, published 2022).

Assay: Retention in nasal passage
Details: from the composition applied nasally

ethyl-N-alpha-lauroyl-L-arginate HCl
retention in nasal passage: ≥ 2 h
